Test results published in PubChem BioAssay AID652104 (National Center for Advancing Translational Sciences (NCATS), 2013).
This is a selection; strong and weak results do not stand in their true shares. Inconclusive results are not listed. Activity calls are given as the source filed them. Calls come from the whole dose curve; as a rule, active = well fitted activation curve with a large enough effect; inconclusive = small, poorly fitted or top-dose-only effect, or another doubt; inactive = no such curve, though single readings can be large or run the other way.

assay: qHTS of TDP-43 Inhibitors; conditions: TDP-43 expressing yeast growth rescue, BacTiter-Glo, 24 h; note: nearly all actives have a fitted effect of over 50% in size
Excerpt: The goal of this project is to identify new chemical probes capable of reversing the toxicity associated with TDP-43 which is associated with frontotemporal lobar degeneration and amyotrophic lateral sclerosis. These compounds will provide a complementary approach to deciphering the tangled mechanisms of toxicity and protection that we have uncovered through genome-wide genetic screens and are beginning to uncover in a large-scale proteomics analysis with mass spectroscopy.
To this end, a miniaturized assay was developed to be screened against the Molecular Libraries Small Molecule Repository (MLSMR) to discover TDP-43 inhibitors. Please note that in the set-up this yeast-based assay compounds that inhibit as TDP-43, have a read-out as activators.
NIH Chemical Genomics Center [NCGC]
NIH Molecular Libraries Probe Centers Network [MLPCN]
Assay Submitter (PI): Susan Lindquist, Whitehead Institute/MIT
Dispense 2.5 microL yeast galactose medium per 1536-well plate, pin compound, dispense 2.5 microL TDP-43 expressing yeast in galactose medium at OD600=0.02 (pregrown in raffinose medium to mid-log phase) per well, incubate for 24 hr at 30 deg C, and cell growth will be measured using 5 microL of Bactiter/Glo reagent to entire plate and read using Luminescence Protocol in ViewLux.
Potency is the fitted concentration of half-maximal effect.

SMILES	Potency
COc1ccc2cc(C(C)C(=O)O)ccc2c1 (configuration not stated)	active: 14.1 µM
COc1ccc2cc([C@H](C)C(=O)O)ccc2c1	active: 22.4 µM
